PMC5511785 (Journal of pharmaceutical sciences, 2017)
Several values for one entry are separate records, joined by “and”; a condition that tells them apart may be missing. Equal entries are not always repeated.

By UniProt entry, the sequences of proteins in these tests, tags left out. Where a name states a change or a piece, a line headed by the entry shows the natural chain unless it says otherwise.
UniProt Q9Y6L6: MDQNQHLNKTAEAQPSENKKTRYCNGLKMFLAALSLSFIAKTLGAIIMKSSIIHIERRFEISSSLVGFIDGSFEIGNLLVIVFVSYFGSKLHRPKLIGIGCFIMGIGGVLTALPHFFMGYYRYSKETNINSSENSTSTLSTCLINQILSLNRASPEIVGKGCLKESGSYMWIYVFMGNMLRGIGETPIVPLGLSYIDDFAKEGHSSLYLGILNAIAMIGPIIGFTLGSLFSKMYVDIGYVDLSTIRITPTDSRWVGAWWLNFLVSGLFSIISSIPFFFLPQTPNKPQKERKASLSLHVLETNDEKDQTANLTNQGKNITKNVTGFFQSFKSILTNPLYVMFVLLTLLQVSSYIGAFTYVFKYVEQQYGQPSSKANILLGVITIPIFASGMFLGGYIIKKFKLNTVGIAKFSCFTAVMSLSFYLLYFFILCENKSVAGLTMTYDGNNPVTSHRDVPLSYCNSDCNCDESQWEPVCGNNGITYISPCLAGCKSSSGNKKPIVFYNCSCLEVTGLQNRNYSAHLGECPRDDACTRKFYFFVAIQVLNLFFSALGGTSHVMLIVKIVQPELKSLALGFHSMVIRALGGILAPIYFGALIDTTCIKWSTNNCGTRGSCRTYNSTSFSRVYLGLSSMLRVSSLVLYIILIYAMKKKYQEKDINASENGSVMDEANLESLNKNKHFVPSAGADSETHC

Experiments:
OATP1B1 [1] = molecular target: T1, OATP1B1 (Homo sapiens, UniProt Q9Y6L6); test: OATP1B1-mediated [3H]-E1S accumulation; assay type: cell-based; conditions: 1 h
[2] = test system: human sandwich-cultured hepatocytes (SCH); test: [3H]-pitavastatin accumulation in human sandwich-cultured hepatocytes; assay type: cell-based; conditions: 1 h pre-incubation with 10 μM, washed, pitavastatin 1 μM, 0.5 min
[3] = test system: human sandwich-cultured hepatocytes (SCH); test: [3H]-CCK-8 accumulation in human sandwich-cultured hepatocytes; assay type: cell-based; conditions: 1 h pre-incubation with 10 μM, washed, CCK-8 1 μM, 3 min
OATP1B1 [4] = molecular target: T1, OATP1B1; conditions: pre+co-incubation vs co-incubation
[5] = test system: HEK293-OATP1B1 and -1B3 cells; conditions: 1 h treatment; rifampicin up to 25 μM, dasatinib up to 20 μM
[6] = rifampicin with pravastatin; cited from earlier work

Compound: CO[C@H]1/C=C/O[C@@]2(C)Oc3c(C)c(O)c4c(O)c(c(/C=N/N5CCN(C)CC5)c(O)c4c3C2=O)NC(=O)/C(C)=C\C=C\[C@H](C)[C@H](O)[C@@H](C)[C@@H](O)[C@@H](C)[C@H](OC(C)=O)[C@@H]1C [Rifampicin]
- [3H]-E1S accumulation, fold of control (OATP1B1 [1]; pre-incubation 10 μM): 0.70 ± 0.16 fold of control
- [3H]-E1S accumulation, fold of control (OATP1B1 [1]; pre-incubation 25 μM): 0.23 ± 0.09 fold of control
- [3H]-pitavastatin accumulation, fold of CTL [2]: 0.66 ± 0.07 fold of CTL
- [3H]-CCK-8 accumulation, fold of CTL [3]: 0.37 ± 0.17 fold of CTL
- Fold reduction of Ki/IC50 against OATP1B1 by pretreatment (OATP1B1 [4]): 3 fold and ~ 3 fold
- LDH cytotoxicity [5]: negligible toxicity
- Cmax ratio of pravastatin in a clinical study [6]: 2.7
